Assay results from US20250361233A1, “Compounds For Activating Serotonin Receptor” (PSYLO PTY LTD, priority 2023, published 2025).

Key:
[1] = In vivo pharmacokinetics: plasma and brain exposure after IP administration; details: male C57BL/6 mice, IP 10 mg/kg
Male ICR mice = experiment: Acute restraint stress - tail suspension test (TST); type: in vivo; details: ICR mice after 5 h acute restraint stress, IP; P-3 3, 10 mg/kg; P-8 3, 10, 30 mg/kg; vs vehicle
C57BL/6J mice = experiment: Biotelemetry and head-twitch response (HTR) experiments; details: male C57BL/6 mice, SC, several doses (0.03 to 30 mg/kg)

Row | Compound | Plasma AUC0-last [1] [µM·h] | Cmax ([1]; read-out: Plasma Cmax) [µM] | Immobility time in tail suspension test (FIG. 6) (Male ICR mice) | Tolerability (temperature, locomotor activity, HTR; FIGS. 2-5) (C57BL/6J mice)
1 | COc1ccc2[nH]nc(CCN(C)C)c2c1 | 1.94 | 7.66 | decrease the immobility time of mice | 
2 | COc1ccc2[nH]cc(CCN(C)C)c2n1 | 1.37 |  |  | well-tolerated
3 | COc1nccc2[nH]cc(CCN(C)C)c12 | 1.63 |  |  | 
